Literature values as cited in patent US20160355464A1, “FUMARATE COMPOUNDS, PHARMACEUTICAL COMPOSITIONS THEREOF, AND METHODS OF USE” (priority 2015, published 2016).

Details: ALS patients

Nc1nc2ccc(OC(F)(F)F)cc2s1 [riluzole]
extension of survival in ALS: about three
